Measured values reported in paper PMC11160895, “Dynamic allostery in the peptide/MHC complex enables TCR neoantigen selectivity” (Research Square, 2024).

Columns and labels:
[1] = tested on: T cells transduced with TCR4; assay: T cell TNF-α production, TCR4 T cells co-cultured with HLA-A3+ antigen presenting cells; format: cell-based; conditions: co-culture with HLA-A3+ antigen presenting cells, E:T 1:1, 6 h; two independent experiments with three biological replicates
[2] = tested on: T cells transduced with TCR3; assay: T cell TNF-α production, TCR3 T cells co-cultured with HLA-A3+ antigen presenting cells; format: cell-based; conditions: co-culture with HLA-A3+ antigen presenting cells, E:T 1:1, 6 h; two independent experiments with three biological replicates
PIK3CA mutant tumors = conditions: wild-type PIK3CA tumor cells unharmed; cited from earlier work
Text: We recently described a panel of TCRs that recognize a public neoantigen resulting from a hotspot mutation in the phosphoinositide 3-kinase p110α catalytic subunit (PI3Kα, encoded by PIK3CA) that is presented by HLA-A*03:01 (HLA-A3) ([15]). The neoantigen results from substitution of a leucine for histidine at the first primary anchor (position 2; sequence […] → […]). […] Although the crystallographic struct ...

T cell clones = conditions: numerous T cell clones; cited from earlier work
Text: (§1) Even though less potency is expected from the WT peptide given its weaker binding to HLA-A3, in other instances where peptides modified at the first primary anchor have been examined, weaker binding peptides have still elicited quantifiable functional responses ([16], [23], [24]).

MHC = conditions: cited from earlier work
Text: as §1

Compound | cytokine (TNF-α) secretion by TCR4 T cells [1] | cytokine (TNF-α) secretion by TCR3 T cells [2] | T cell destruction of tumors (PIK3CA mutant tumors) | T cell responses (T cell clones) | MHC binding affinity compared with PIK3CA peptides (MHC)
CC(C)C[C@H](NC(=O)[C@H](C)N)C(=O)N[C@@H](Cc1c[nH]cn1)C(=O)NCC(=O)NCC(=O)N[C@@H](Cc1c[nH]c2ccccc12)C(=O)N[C@H](C(=O)N[C@H](C(=O)N[C@@H](CCCCN)C(=O)O)[C@@H](C)O)[C@@H](C)O [neoantigen] | well-recognized | well-recognized | drives T cell destruction of PIK3CA mutant tumors |  | 
AAGIGILTV [native MART-1 nonamer, native MART-1 shared tumor antigen nonamer] |  |  |  | measurable responses | nearly the same as the PIK3CA WT peptide
